In PubChem BioAssay AID435005 (Broad Institute, 2010):
Only a part is listed here, and it is no random draw. Active and inactive are the calls of the source.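 The calls were made as follows: active = Every replicate reaches about 75%, or at least half do and their mean reaches it too (limit read from the data); inconclusive = At least half of replicates reach the limit but their mean does not; inactive = Under half of replicates reach the limit.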

Assay: INS-1E beta cell survival under cytokines – luminescence, primary screen (AID 435005);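 also: 0% = cytokine-treated negative control wells and 100% = positive control rescue; higher means more ATP so stronger rescue from cytokine killing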
Settings: INS-1E cytokine-induced death, ATP luminescence, 48 h; hits give high values; percent of positive-control rescue, neutral wells zero; concentration not given here

With `O=[N+]([O-])c1ccc2c(c1)nnn2O` as the compound, how does the protection from apoptosis read?
The protection from apoptosis was inactive: -3.82%.

With `CC1=NCCc2c1[nH]c1ccccc21.O=[N+]([O-])c1cc([N+](=O)[O-])c(O)c([N+](=O)[O-])c1` as the compound, how does the protection from apoptosis read?
Its protection from apoptosis is inactive: -0.356%.

For `CN(C(=O)Cc1ccc(Cl)c(Cl)c1)[C@H]1CC[C@@]2(CCCO2)C[C@@H]1N1CCCC1`, which protection from apoptosis is on record?
The protection from apoptosis was inactive: 1.55%.

For `N#CCCN(C(=O)COC(=O)C(O)(c1ccccc1)c1ccccc1)c1ccc(F)cc1`, which protection from apoptosis is on record?
Its protection from apoptosis is inactive: -1.84%.

Which protection from apoptosis does the source give for `CN(C(=O)Cc1ccccc1)[C@@H]1CC[C@]2(CCCO2)C[C@H]1N1CCCC1` here?
The protection from apoptosis was inactive: -2.32%.

With `CCOP1(=S)c2c(C)nn(CCC#N)c2N=C(c2ccc(F)cc2)N1C` (stereo not given) as the compound, how does the protection from apoptosis read?
The protection from apoptosis was inactive: 16.4%.

With `CS(=O)(=O)c1cc([N+](=O)[O-])c2no[n+]([O-])c2c1` as the compound, how does the protection from apoptosis read?
Its protection from apoptosis is inactive: 6.25%.

With `O=C(O)c1cccc(Nc2c([N+](=O)[O-])cc([N+](=O)[O-])cc2[N+](=O)[O-])c1` as the compound, how does the protection from apoptosis read?
Its protection from apoptosis is inactive: 2.1%.

Which protection from apoptosis does the source give for `CCOP1(=S)c2c(C)nn(CCC#N)c2N=C(c2ccccc2F)N1C` (stereo not given) here?
The protection from apoptosis was inactive: 0.177%.

With `O=P(Nc1nccs1)(Oc1ccccc1)Oc1ccccc1` as the compound, how does the protection from apoptosis read?
Its protection from apoptosis is inactive: -12.7%.

Which protection from apoptosis does the source give for `O=P(Nc1nccs1)(c1ccccc1)c1nc2ccccc2s1` (stereo not given) here?
The protection from apoptosis was inactive: 14.1%.

Which protection from apoptosis does the source give for `O=C(O)COc1ccc([As](=O)(O)O)cc1[N+](=O)[O-]` here?
Its protection from apoptosis is inactive: -3.26%.

With `Nc1ccccc1[As](=O)(O)c1ccccc1` as the compound, how does the protection from apoptosis read?
Its protection from apoptosis is inactive: -3.15%.

For `CN1CCCCC1COC(=O)C1(O)c2ccccc2CCc2ccccc21` (stereo not given), which protection from apoptosis is on record?
The protection from apoptosis was inactive: -0.563%.

For `COc1ccccc1OP(C)(=O)Nc1c(C)cccc1C` (stereo not given), which protection from apoptosis is on record?
Its protection from apoptosis is inactive: -7.17%.

With `O=P1(Nc2ncccn2)COc2ccccc2OC1` as the compound, how does the protection from apoptosis read?
Its protection from apoptosis is inactive: -1.15%.

For `Cc1ccc(OCC(=O)OC2CN3CCC2CC3)cc1` (stereo not given), which protection from apoptosis is on record?
Its protection from apoptosis is inactive: 1.28%.

With `O=[As](O)(c1cccs1)c1cccs1` as the compound, how does the protection from apoptosis read?
Its protection from apoptosis is inactive: -5.25%.

For `NS(=O)(=O)c1cccc(NC(=O)COC(=O)C(O)(c2ccccc2)c2ccccc2)c1`, which protection from apoptosis is on record?
Its protection from apoptosis is inactive: -0.94%.

With `O=P1(Nc2ccc(Br)cn2)COc2ccccc2OC1` as the compound, how does the protection from apoptosis read?
Its protection from apoptosis is inactive: -2.7%.

Which protection from apoptosis does the source give for `CCCOc1ccc(NP(C)(=O)Oc2ccc(Cl)cc2)cc1` (stereo not given) here?
Its protection from apoptosis is inactive: -2.96%.

For `Nc1cccc([As](=O)(O)c2ccccc2)c1`, which protection from apoptosis is on record?
Its protection from apoptosis is inactive: -4.55%.

Which protection from apoptosis does the source give for `CP(=O)(Nc1ccc(SC(F)(F)F)cc1)Oc1ccccc1` (stereo not given) here?
The protection from apoptosis was inactive: 3.56%.

Which protection from apoptosis does the source give for `COc1cc(C2NCCC3(OCCO3)C2(C)C)cc(OC)c1OC.O=[N+]([O-])c1cc([N+](=O)[O-])c(O)c([N+](=O)[O-])c1` (stereo not given) here?
Its protection from apoptosis is inactive: 0.572%.

Which protection from apoptosis does the source give for `Cc1nn(-c2ccccc2)c2c1P(=O)(N1CCOCC1)N(C)C(c1ccccc1)=N2` (stereo not given) here?
Its protection from apoptosis is inactive: 0.0848%.

For `Cc1ccc(C(=O)OC2CN3CCC2CC3)cc1` (stereo not given), which protection from apoptosis is on record?
Its protection from apoptosis is inactive: -8.32%.

For `CC1CCC(C(C)C)C(OP(=O)(Nc2ccccn2)c2ccccc2)C1` (stereo not given), which protection from apoptosis is on record?
The protection from apoptosis was inactive: 12.7%.

With `O=C(/C=C/c1ccccc1)OC1CN2CCC1CC2` (stereo not given) as the compound, how does the protection from apoptosis read?
The protection from apoptosis was inactive: -4.75%.

For `CC1=C2N=C(C=C3N=C(C(C)=C4[N-][C@@](C)([C@@H]5N=C1[C@](C)(CCC(=O)NC[C@@H](C)OP(=O)([O-])O[C@H]1[C@@H](O)[C@@H](n6cnc7cc(C)c(C)cc76)O[C@@H]1CO)[C@H]5CC(N)=O)[C@@](C)(CC(N)=O)[C@@H]4CCC(N)=O)[C@@](C)(CC(N)=O)[C@@H]3CCC(N)=O)C(C)(C)[C@@H]2CCC(N)=O.[C-]#N.[Co+3]`, which protection from apoptosis is on record?
The protection from apoptosis was inactive: 4.91%.

Which protection from apoptosis does the source give for `CN(C)C1(CNC(=O)c2ccc(S(C)(=O)=O)cc2)CCCCC1` here?
Its protection from apoptosis is inactive: 5.95%.

With `O=[N+]([O-])c1cc([N+](=O)[O-])c(Nc2nnnn2CCO)c([N+](=O)[O-])c1` as the compound, how does the protection from apoptosis read?
The protection from apoptosis was inactive: -9.61%.

Which protection from apoptosis does the source give for `CCOC(=O)C(CC)C1=NC(C)(C)Cc2ccccc21.O=[N+]([O-])c1cc([N+](=O)[O-])c(O)c([N+](=O)[O-])c1` (stereo not given) here?
The protection from apoptosis was inactive: -7.69%.

With `COc1ccccc1CNC(=O)COC(=O)C(O)(c1ccccc1)c1ccccc1` as the compound, how does the protection from apoptosis read?
The protection from apoptosis was inactive: 3.23%.

With `O=[N+]([O-])c1cc([N+](=O)[O-])c(-c2cnn(-c3ccccc3)c2)c([N+](=O)[O-])c1` as the compound, how does the protection from apoptosis read?
Its protection from apoptosis is active: 100%.

For `O=[As](O)(c1ccccc1Br)c1ccccc1Br`, which protection from apoptosis is on record?
The protection from apoptosis was inactive: -4.81%.

For `CC1(CBr)Cn2c(nc3ccccc3c2=O)S1` (stereo not given), which protection from apoptosis is on record?
The protection from apoptosis was inactive: -20.6%.

Which protection from apoptosis does the source give for `Cc1nc2ccc3ccccc3c2s1.O=[N+]([O-])c1cc([N+](=O)[O-])c(O)c([N+](=O)[O-])c1` here?
The protection from apoptosis was inactive: -3.74%.

With `CN(C(=O)Cc1ccc(Cl)c(Cl)c1)[C@@H]1CCCC[C@H]1N1CCCC1` as the compound, how does the protection from apoptosis read?
Its protection from apoptosis is inactive: -8.38%.

With `CCOP(=O)(Nc1ccc(C)cn1)OCC` as the compound, how does the protection from apoptosis read?
Its protection from apoptosis is inactive: 0.177%.

With `CCC1=CC2Cc3nc4ccc(Cl)cc4c(N)c3C(C1)C2` (stereo not given) as the compound, how does the protection from apoptosis read?
Its protection from apoptosis is inactive: 14%.

With `O=[N+]([O-])c1cc([N+](=O)[O-])c(-n2nnc3ccccc32)c([N+](=O)[O-])c1` as the compound, how does the protection from apoptosis read?
Its protection from apoptosis is inactive: -10.4%.

Which protection from apoptosis does the source give for `Clc1n[nH]nc1-c1nn[nH][15n]1` here?
The protection from apoptosis was inactive: 1.63%.

Which protection from apoptosis does the source give for `CC(C)(C)C(=O)NC(Sc1ncccn1)C(Cl)(Cl)Cl` (stereo not given) here?
The protection from apoptosis was inactive: -2.2%.

For `CP(=O)(Nc1ccc2c(c1)OCCO2)Oc1ccccc1` (stereo not given), which protection from apoptosis is on record?
The protection from apoptosis was inactive: -2.1%.

Which protection from apoptosis does the source give for `Cc1ccccc1NP(C)(=O)Nc1ccccc1C` here?
The protection from apoptosis was inactive: -4.91%.

With `CP(=O)(Nc1ccc(SC(F)(F)F)cc1)Oc1ccc(F)cc1` (stereo not given) as the compound, how does the protection from apoptosis read?
Its protection from apoptosis is inactive: -7.32%.

Which protection from apoptosis does the source give for `O=P(Nc1nccs1)(c1ccccc1)c1ccccc1` here?
Its protection from apoptosis is inactive: -2.83%.

For `CC(C)C(=O)NC(Sc1ccccc1)C(Cl)(Cl)Cl` (stereo not given), which protection from apoptosis is on record?
The protection from apoptosis was inactive: -12.3%.

For `CCOP(C)(=S)SCC(=O)NC(C)(CC)C(=O)O` (stereo not given), which protection from apoptosis is on record?
The protection from apoptosis was inactive: 0.397%.

With `c1nnnn1CCn1cnnn1` as the compound, how does the protection from apoptosis read?
Its protection from apoptosis is inactive: -5.66%.

Which protection from apoptosis does the source give for `O=[N+]([O-])c1ccc(OP2(=O)COCCO2)cc1` (stereo not given) here?
Its protection from apoptosis is inactive: 3.55%.

With `CC(=O)NC(SC(=S)N(C)C)C(Cl)(Cl)Cl` (stereo not given) as the compound, how does the protection from apoptosis read?
Its protection from apoptosis is inactive: 2.27%.

Which protection from apoptosis does the source give for `O=[N+]([O-])c1ncn(CCn2cnc([N+](=O)[O-])n2)n1` here?
The protection from apoptosis was inactive: -5.9%.

Which protection from apoptosis does the source give for `O=[As](O)(c1ccccc1)c1ccc(O)cc1` here?
Its protection from apoptosis is inactive: -2.23%.

For `O=[N+]([O-])c1cc([N+](=O)[O-])c(NCC2CCS(=O)(=O)C2)c([N+](=O)[O-])c1` (stereo not given), which protection from apoptosis is on record?
The protection from apoptosis was inactive: -0.145%.
